Earlier results as cited in patent US20250295728A1 (UCB Biopharma SRL, priority 2022, published 2025).

What was measured:
[1] = test system: AChR autoantibody-positive patients with refractory gMG
[2] = test system: AChR autoantibody-positive patients
[3] = REGAIN and open-label extension

B1: eculizumab (antibody, chains of the INN, looked up)
heavy: QVQLVQSGAEVKKPGASVKVSCKASGYIFSNYWIQWVRQAPGQGLEWMGEILPGSGSTEYTENFKDRVTMTRDTSTSTVYMELSSLRSEDTAVYYCARYFFGSSPNWYFDVWGQGTLVTVSSASTKGPSVFPLAPCSRSTSESTAALGCLVKDYFPEPVTVSWNSGALTSGVHTFPAVLQSSGLYSLSSVVTVPSSNFGTQTYTCNVDHKPSNTKVDKTVERKCCVECPPCPAPPVAGPSVFLFPPKPKDTLMISRTPEVTCVVVDVSQEDPEVQFNWYVDGVEVHNAKTKPREEQFNSTYRVVSVLTVLHQDWLNGKEYKCKVSNKGLPSSIEKTISKAKGQPREPQVYTLPPSQEEMTKNQVSLTCLVKGFYPSDIAVEWESNGQPENNYKTTPPVLDSDGSFFLYSRLTVDKSRWQEGNVFSCSVMHEALHNHYTQKSLSLSLG
light: DIQMTQSPSSLSASVGDRVTITCGASENIYGALNWYQQKPGKAPKLLIYGATNLADGVPSRFSGSGSGTDFTLTISSLQPEDFATYYCQNVLNTPLTFGQGTKVEIKRTVAAPSVFIFPPSDEQLKSGTASVVCLLNNFYPREAKVQWKVDNALQSGNSQESVTEQDSKDSTYSLSSTLTLSKADYEKHKVYACEVTHQGLSSPVTKSFNRGEC
time to impact on QMG score after initiating treatment ([1]; in vivo): ≤ 1 week
responders achieving an 8-point reduction in QMG score ([1]; initial 16-week treatment period): 4 patients
patients achieving a ≥3-point improvement in QMG score ([1]; initial 16-week treatment period, IV infusion): 6 out of 7
secondary endpoint: change from baseline in QMG score ([2]; 26-week treatment period, p=0.0129): statistically significant results were observed
primary endpoint: change from baseline in MG-ADL relative to placebo ([2]; 26-week treatment period, p=0.0698): not associated with a statistically significant benefit relative to placebo
MG-ADL late responders (response between Week 12 and end of OLE) [2, 3]: 17%
MG-ADL non responders [2, 3]: 15%
QMG late responders (response between Week 12 and end of OLE) [2, 3]: 15%
QMG non responders [2, 3]: 29%
